For one molecule, IC50 results are on record in PMC3686795, “CD38 Structure-Based Inhibitor Design Using the N1-Cyclic Inosine 5′-Diphosphate Ribose Template” (PLoS ONE, 2013).

The chains behind the UniProt entries cited, without tags or fusion partners. Residues count along the entry.
UniProt P28907, 45-300 N100D/N164A/N209D/N219D limits assumed: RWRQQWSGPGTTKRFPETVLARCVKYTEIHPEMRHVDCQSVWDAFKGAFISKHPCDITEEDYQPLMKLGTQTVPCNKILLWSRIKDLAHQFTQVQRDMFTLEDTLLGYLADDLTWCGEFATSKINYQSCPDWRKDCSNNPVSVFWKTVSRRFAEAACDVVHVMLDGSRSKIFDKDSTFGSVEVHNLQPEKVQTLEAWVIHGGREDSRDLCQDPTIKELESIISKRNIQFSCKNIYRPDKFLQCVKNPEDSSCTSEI

The target of the test is T1, wild-type CD38 (cADPR hydrolase activity) (Homo sapiens, UniProt P28907, N100D/N164A/N209D/N219D).
T1 construct: Crystal structure of human CD38 extracellular domain; made in house
The experiment in a line: Enzymatic assay for cADPR hydrolysis (inhibition of CD38-catalyzed cADPR hydrolysis, fluorimetric cycling assay). The test is classed as biochemical. As to conditions: 1 µM cADPR, 2 µg/mL CD38, 10 min, 20–24°C, pH 4.5. On the procedure:
The inhibition of cADPR hydrolysis by various concentrations of inhibitor (0–1 mM) was determined by incubating 1 µM cADPR with 2 µg/mL of CD38 for 10 min at 20–24°C in 25 mM sodium acetate, pH 4.5. The reaction was stopped by the addition of 150 mM HCl. The precipitated protein was filtered, and the pH was neutralized with Tris base. After diluting the mixture 20-fold, the concentration of the unhydrolyzed cADPR present in the diluted reaction mixture was assayed by the fluorimetric cycling assay as previously described.

Consider `O=c1c2nc(Br)n3c2ncn1[C@@H]1O[C@H](COP(=O)(O)OP(=O)(O)OC[C@H]2O[C@@H]3[C@H](O)[C@@H]2O)[C@@H](O)[C@H]1O` [8-Bromo N1-cIDPR, 8-bromo N1-cIDPR], for which the IC50 was found to be 158 µM.
